Experiments:
[1] = test system: blood-brain barrier (BBB); assay: Effect of branched chain fatty acids on BBB permeability by qualitative Evan's Blue (EB) evaluation in rats; format: in vivo, rat (male Sprague-Dawley); details: 625 μM, 45 min, intracarotid infusion; also: key: -: Minus signs represents no staining; +: four degrees of Evan's Blue extravasation according to Rapoport et al; ++: four degrees of Evan's Blue extravasation according to Rapoport et al; +++: three plus signs represent maximal staining
Procedure: Evaluation of Effect of Branched Fatty Acids on Blood-brain Barrier Permeability
The experiments were carried out on male Sprague-Dawley rats weighing 250-320 gr. They were anesthetized with Rampun-Imalgen. The right common carotid artery was exposed.
The test compounds were dissolved in 0.1M phosphate buffered physiological saline (pH=7.4) at the following test concentrations: 1.6; 8; 20; 40; 200 and 1000 μg/ml. […] The resulting pH of the test solutions was in the range of 8.0 to 8.5, and contols for the pH effect were performed up to pH 9.
The test compound was infused into the right common carotid artery at a rate of 6 ml/min. for 30 s. The control rats were infused with buffer. Evan's Blue (EB) solution at a concentration of […] (2 g Evan's Blue, 0.9 g NaCl in 100 ml water) was injected intravenously 50 minutes prior to the termination of the experiment.
In the case of 45 min experiment, five minutes prior to the infusion of the tested material, 4 ml/kg body wt dose of Evans Blue solution was injected intravenously.
At the end of the experimental time period the animals were perfused with 100 ml of saline solution through the heart and decapitated. […]

[2] = test system: ipsilateral hemisphere of the brain; assay: Methotrexate content of brains of rats pretreated with M3,14 (DP-BFA); format: in vivo, rat

SMILES | Visual EB [1] | Methotrexate content, ipsilateral, control ([2]; 0 min) | Methotrexate content, ipsilateral, control ([2]; 30 min) | Methotrexate content, ipsilateral, control ([2]; 60 min) | Methotrexate content, ipsilateral, control ([2]; 90 min) | Methotrexate content, ipsilateral, control ([2]; 120 min) | Methotrexate content, ipsilateral, control ([2]; 150 min) | Methotrexate content, ipsilateral, control ([2]; 180 min) | Methotrexate content, ipsilateral, control ([2]; 210 min)
CCCC(CCC)C(=O)O [M3/3, reference compound] | - |  |  |  |  |  |  |  | 
CN(Cc1cnc2nc(N)nc(N)c2n1)c1ccc(C(=O)N[C@@H](CCC(=O)O)C(=O)O)cc1 [Methotrexate, methotrexate] |  | 0 | 0.027 | 0.049 | 0.095 | 0.095 | 0.109 | 0.19 | 0.218

Reference: patent US6319952A, “Compositions and methods for reversibly increasing permeability of biomembranes” (D-Pharm Ltd., priority 1997, dated 2001)
